This passage reports IC50 results from patent US9624241B2 (Incyte Corporation, priority 2013, dated 2017).

Usually IC50 stands for the point on the concentration scale where inhibition reaches its midpoint.

Bounds are passed on as bounds.

Holding throughout (assay type): binding
Assay [1] has as its target T1, BRD4-BD1 (Homo sapiens (Human), UniProt O60885). Nature of the assay: BRD4 AlphaScreen Assay (Example A2), BRD4-BD1. The note with it: read-out: BRD4 BD-1 enzyme IC50. The protocol: (§1) BRD4-BD1 and BRD4-BD2 assays were conducted in white 384-well polystyrene plate in a final volume of 40 μL for BD1 and 60 μL for BD2. Inhibitors were first serially diluted in DMSO and added to the plate wells before the addition of other reaction components. […] The assays were carried out at room temperature in the assay buffer (50 mM Tris-HCl, pH 7.5, 0.01% Tween-20, 0.01% BSA, 5 mM DTT), containing 50 nM Biotin-labeled tetra-acetylated histone H4 peptide (H4Ac4) and BRD4-BD1 or BRD4-BD2 protein at concentration less than 1 nM. […] After plate sealing, the plate was incubated in the dark at room temperature for 75 min. before reading on a PHERAstar FS plate reader (BMG Labtech). IC50 determination was performed by fitting the curve of percent control activity versus the log of the inhibitor concentration using the GraphPad Prism 5.0 software.
(In general: In Alpha technology, singlet oxygen from a donor bead excites a nearby acceptor bead.)

For assay [2], the target named is T2, BRD4-BD2 (Homo sapiens (Human), UniProt O60885). Description: BRD4 AlphaScreen Assay (Example A2), BRD4-BD2. Particulars: read-out: BRD4 BD-2 enzyme IC50. The protocol: as §1
Assay [3] concerns the target T2, BRD4-BD2. Nature of the assay: BRD4 AlphaScreen Assay (Example A1), BRD4-BD2. The note with it: Assay A1, 20 nM BRD4-BD2, 50 nM H4Ac4 peptide; read-out: BRD4 BD-2 enzyme IC50. The procedure: (§2) BRD4-BD1 and BRD4-BD2 assays were conducted in white 384-well polystyrene plate in a final volume of 20 μL for BD1 and 40 μL for BD2. Inhibitors were first serially diluted in DMSO and added to the plate wells before the addition of other reaction components. […] After plate sealing, the plate was incubated in the dark at room temperature for 75 min. before reading on a PHERAstar FS plate reader (BMG Labtech). IC50 determination was performed by fitting the curve of percent control activity versus the log of the inhibitor concentration using the GraphPad Prism 5.0 software.

Assay [4] concerns the target T1, BRD4-BD1. Description: BRD4 AlphaScreen Assay (Example A1), BRD4-BD1. The note with it: Assay A1, 3.8 nM BRD4-BD1, 50 nM H4Ac4 peptide; read-out: BRD4 BD-1 enzyme IC50. The protocol:
as §2

[5] abbreviates: Assay A2, AlphaScreen, BRD4-BD1.
Setting [6] is: Assay A2, AlphaScreen, BRD4-BD2.

For `CCOC(=O)C1Oc2c(-c3c(C)noc3C)ccc3[nH]c(=O)n(c23)C1c1ccccn1` (stereo not shown) [Example 20, Ethyl 7-(3,5-dimethylisoxazol-4-yl)-2-oxo-4-pyridin-2-yl-1,2,4,5-tetrahydroimidazo[1,5,4-de][1,4]benzoxazine-5-carboxylate], the IC50 at BRD4-BD1 [1] (setting [5]) is 100 to 1000 nM; at BRD4-BD2 [2] (setting [6]) it was less than 100 nM.

As to `CCOC(=O)C1Oc2c(-c3c(C)noc3C)ccc3[nH]c(=O)n(c23)C1c1ccccc1` (stereo not shown) [Example 23, Ethyl 7-(3,5-dimethylisoxazol-4-yl)-2-oxo-4-phenyl-1,2,4,5-tetrahydroimidazo[1,5,4-de][1,4]benzoxazine-5-carboxylate], the concentration for half-maximal inhibition (IC50) at BRD4-BD2 [3] and on BRD4-BD1 [4] was less than 100 nM throughout.

As for `Cc1noc(C)c1-c1ccc2nc(N3CC[C@@H](O)C3)n3c2c1OCC3c1cccnc1` (single isomer, unassigned) [Example 159C], the IC50 on BRD4-BD1 [1] (setting [5]) was 100 to 1000 nM; on BRD4-BD2 [2] (setting [6]) it was less than 100 nM.

`Cc1noc(C)c1-c1ccc2nc(C3=CCNCC3)n3c2c1OC[C@@H]3c1ccccn1` [Example 104, (4S)-7-(3,5-dimethylisoxazol-4-yl)-4-pyridin-2-yl-2-(1,2,3,6-tetrahydropyridin-4-yl)-4,5-dihydroimidazo[1,5,4-de][1,4]benzoxazine]: the IC50 at BRD4-BD1 [1] and at BRD4-BD2 [2] was less than 100 nM in each case.

With `CC(=O)NCc1ncccc1C1COc2c(-c3c(C)noc3C)ccc3[nH]c(=O)n1c23` (stereo not shown) [Example 131, N-({3-[7-(3,5-Dimethylisoxazol-4-yl)-2-oxo-1,2,4,5-tetrahydroimidazo[1,5,4-de][1,4]benzoxazin-4-yl]pyridin-2-yl}methyl)acetamide], the IC50 at BRD4-BD1 [1] (setting [5]) and on BRD4-BD2 [2] (setting [6]) was less than 100 nM each time.

In the case of `Cc1noc(C)c1-c1ccc2nc(N3CCNCC3)n3c2c1OCC3c1ccccc1` (stereo not shown) [Example 40, 7-(3,5-Dimethylisoxazol-4-yl)-4-phenyl-2-piperazin-1-yl-4,5-dihydroimidazo[1,5,4-de][1,4]benzoxazine], the IC50 on BRD4-BD2 [3] was less than 100 nM; at BRD4-BD1 [4], 100 to 1000 nM.

`Cc1noc(C)c1-c1ccc2nc(N3CC[C@@H](O)C3)n3c2c1OC[C@@H]3c1cccnc1` [Example 168A, (3R)-1-[(4S)-7-(3,5-Dimethylisoxazol-4-yl)-4-pyridin-3-yl-4,5-dihydroimidazo[1,5,4-de][1,4]benzoxazin-2-yl]pyrrolidin-3-ol]: the IC50 at BRD4-BD1 [1] and at BRD4-BD2 [2] was less than 100 nM throughout.

Regarding `Cc1noc(C)c1-c1ccc2nc(N3CC[C@@H](O)C3)n3c2c1OCC3c1cccnc1` (single isomer, unassigned) [Example 159D], the IC50 at BRD4-BD1 [1] (setting [5]) and on BRD4-BD2 [2] (setting [6]) was less than 100 nM throughout.

Consider `Cc1noc(C)c1-c1ccc2nc(N3CC[C@@H](O)C3)n3c2c1OCC3c1cccnc1` (mixture of isomers) [Example 159E, (3R)-1-[7-(3,5-Dimethylisoxazol-4-yl)-4-pyridin-3-yl-4,5-dihydroimidazo[1,5,4-de][1,4]benzoxazin-2-yl]pyrrolidin-3-ol], for which the IC50 at BRD4-BD1 [1] (setting [5]) and on BRD4-BD2 [2] (setting [6]) was less than 100 nM throughout.

Take `Cc1noc(C)c1-c1ccc2nc(N3CC[C@@H](O)C3)n3c2c1OCC3c1cccnc1` (single isomer, unassigned) [Example 159A]: the values for the IC50 at BRD4-BD1 [1] (setting [5]) and on BRD4-BD2 [2] (setting [6]) were 1000 to 10000 nM and 100 to 1000 nM, respectively.

As for `Cc1noc(C)c1-c1ccc2[nH]c(=O)n3c2c1OC(C(=O)N(C)C)C3c1ccccc1` (single isomer, unassigned) [Example 47B, 7-(3,5-Dimethylisoxazol-4-yl)-N,N-dimethyl-2-oxo-4-phenyl-1,2,4,5-tetrahydroimidazo [1,5,4-de][1,4]benzoxazine-5-carboxamide], the values for the half-inhibitory concentration (IC50) on BRD4-BD1 [1] (setting [5]) and at BRD4-BD2 [2] (setting [6]) were 100 to 1000 nM and less than 100 nM, respectively.

Take `CC(=O)NCC1(c2ccccn2)COc2c(-c3c(C)noc3C)ccc3[nH]c(=O)n1c23` (stereo not shown) [Example 72, N-{[7-(3,5-Dimethylisoxazol-4-yl)-2-oxo-4-pyridin-2-yl-1,2,4,5-tetrahydroimidazo[1,5,4-de][1,4]benzoxazin-4-yl]methyl}acetamide 2,2,2-trifluoroacetate]: the IC50 on BRD4-BD1 [1] (setting [5]) is 100 to 1000 nM; at BRD4-BD2 [2], less than 100 nM.

With `Cc1noc(C)c1-c1ccc2nc(C3=CCCNC3)n3c2c1OC[C@@H]3c1ccccn1` [Example 107, (4S)-7-(3,5-dimethylisoxazol-4-yl)-4-pyridin-2-yl-2-(1,2,5,6-tetrahydropyridin-3-yl)-4,5-dihydroimidazo[1,5,4-de][1,4]benzoxazine], the IC50 at BRD4-BD1 [1] (setting [5]) and at BRD4-BD2 [2] (setting [6]) was less than 100 nM in each case.

Regarding `Cc1noc(C)c1-c1ccc2[nH]c(=O)n3c2c1OC(C(=O)N(C)C)C3c1ccccc1` (single isomer, unassigned) [Example 47A, 7-(3,5-Dimethylisoxazol-4-yl)-N,N-dimethyl-2-oxo-4-phenyl-1,2,4,5-tetrahydroimidazo [1,5,4-de][1,4]benzoxazine-5-carboxamide], the IC50 on BRD4-BD1 [1] (setting [5]) and on BRD4-BD2 [2] (setting [6]) was 100 to 1000 nM each time.

Consider `Cc1noc(C)c1-c1ccc2nc(N3CC[C@H](O)C3)n3c2c1OC[C@@H]3c1cccnc1` [Example 168B, (3S)-1-[(4S)-7-(3,5-Dimethylisoxazol-4-yl)-4-pyridin-3-yl-4,5-dihydroimidazo[1,5,4-de][1,4]benzoxazin-2-yl]pyrrolidin-3-ol], for which the IC50 at BRD4-BD1 [1] and at BRD4-BD2 [2] was less than 100 nM each time.

On to `Cc1noc(C)c1-c1ccc2[nH]c(=O)n3c2c1OCC3c1cccnc1C(=O)N(C)C` (stereo not shown) [Example 129, 3-[7-(3,5-Dimethylisoxazol-4-yl)-2-oxo-1,2,4,5-tetrahydroimidazo[1,5,4-de][1,4]benzoxazin-4-yl]-N,N-dimethylpyridine-2-carboxamide], for which the IC50 was 100 to 1000 nM on BRD4-BD1 [1] (setting [5]) and less than 100 nM at BRD4-BD2 [2] (setting [6]).

As for `Cc1noc(C)c1-c1ccc2nc(N3CC[C@@H](O)C3)n3c2c1OCC3c1cccnc1` (single isomer, unassigned) [Example 159B], the IC50 on BRD4-BD1 [1] (setting [5]) and on BRD4-BD2 [2] (setting [6]) was less than 100 nM in each case.
